## Binding of CDR-mutated scFvs to a peptide of the spike HR2 region

Binding partner: SARS-CoV-2 spike HR2 peptide, sequence PDVDLGDISGINAS.

Each scFv is VH, a (GGGGS)3 linker, VL, as in the parent Ab-14, and differs from it in the CDRs of the heavy chain only.
VH: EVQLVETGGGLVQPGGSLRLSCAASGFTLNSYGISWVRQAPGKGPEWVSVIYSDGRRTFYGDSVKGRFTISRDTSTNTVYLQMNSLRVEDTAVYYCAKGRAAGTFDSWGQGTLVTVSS
VL: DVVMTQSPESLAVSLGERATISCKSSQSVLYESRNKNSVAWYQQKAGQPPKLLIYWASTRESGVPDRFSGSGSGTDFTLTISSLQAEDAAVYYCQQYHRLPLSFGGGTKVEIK

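Phage display of a naive human antibody library on the peptide gave the parent. This is the validation round: designs drawn from the data on random variants, tested in the same kind of assay. Several design methods are mixed in this list. AlphaSeq pools MATa yeast showing the antibodies with MATalpha yeast showing the peptide. The frequency of each diploid, read from paired DNA barcodes, reflects how well the two displayed proteins bind. Each replicate has its own calibration line, from reference interactions of the BCL2 family. Mating was done six times.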

Each variant is given by its three heavy chain CDRs, as the data file delimits them; those of the parent are GFTLNSYGIS, VIYSDGRRTFYGDSVK, GRAAGTFDS. Numbers give log10(Kd / nM), so 0 is 1 nM and 3 is 1 µM. Smaller is tighter. The mean shown is taken over the replicates in which the pair was detected. "nd" marks a missing value. The strain was present, yet no cells mated with the target were sequenced in that replicate, which points to weak or no binding. Values of this round are not directly comparable with the first-round values of the same sequences. Three control strains display no target. For all heavy chain designs, 1% of the pairings with them gave a signal, with a median of 2.08 and one signal in twenty below 0.84, so weak values seen in few replicates may be background. The authors' rule: three or more of the six replicates give a measured affinity, fewer mean a poor binder.

Variant GFDLDEYGIS | VIYADGKRTAYIDSVK | GENAGTFDV showed 0.39, 0.49, 0.27, -0.03, -0.15, 0.09 (mean 0.18).
Variant GFELTEYGIS | VIYADGHRSFVTDTVK | GQQAGIFNV showed nd, nd, nd, 1.32, nd, nd.
Variant GFTLNSYGIS | VIYSDGRRTFYSDSVK | GRTAGTFFS showed nd, nd, nd, nd, nd, nd.
Variant GFDLNEYGIS | VIYADGRRTAYSDSVK | GAVAGTFDK showed 0.28, 0.00, -0.15, 0.02, 0.26, 0.61 (mean 0.17).
Variant GFDLNEYGIS | VIYADGRRTAYIDSVK | GEAAGTFDM showed 0.34, -0.31, -0.68, -0.70, 0.01, -0.02 (mean -0.23).
Variant GFTLNDYGIS | VIYSDGRRTHYKDSVK | GRAAGTFDS showed 2.05, nd, 1.33, nd, nd, nd (mean 1.69).
Variant GFDLNEYGIS | VIYADGQRTAYSDSVK | GETAGTFDQ showed -0.56, -0.56, -0.92, -0.60, -0.55, -0.51 (mean -0.62).
Variant GFTLNDYGIS | VIYSDGRRTFYTDSVK | GRAAGTFES showed 1.18, nd, 2.56, nd, 1.72, 2.31 (mean 1.94).
Variant GFNLNSYGIS | VIYSDGRRTFYVDPVK | GNAAGTFDS showed 1.65, 3.35, 3.83, nd, nd, 3.10 (mean 2.98).
Variant KFTLNEYGIS | VIYSDGRRTFYTDSVK | GRIAGTFDS showed 1.77, nd, 1.40, 1.27, 1.61, 1.18 (mean 1.45).
Variant GFDLNEYGIS | VIYADGMRTFYTDSVK | GEVAGTFDL showed -0.03, -0.45, -0.42, -0.95, -0.78, -0.60 (mean -0.54).
Variant GFDLNSYGIS | VIYSDGRRTFYGDDVK | GREAGTFDS showed 0.16, 0.14, 0.04, -0.16, -0.26, -0.11 (mean -0.03).
Variant GFSLNSYGIS | VIYADGRRTFYGDSVK | GQAAGTFDK showed -0.02, 0.03, 0.01, 0.05, -0.09, 0.17 (mean 0.02).
Variant GDTLNEYGIS | VIYSDGRRTFSTDSVK | GRFAGTFDS showed nd, nd, nd, nd, nd, nd.
Variant GFSLNSYGIS | VIYSDGRRTFYEDSVK | GEAAGTFDS showed 0.56, 0.23, 0.17, 0.05, 0.11, 0.42 (mean 0.26).
Variant GFDLNEYGIS | VIYADGVRTFYSDSVK | GTNAGTFDI showed -0.18, -0.18, -0.54, -0.80, -0.77, -0.06 (mean -0.42).
Variant GFWLNSYGIS | VIYSDGRRTFYGDSVK | CTAAGTFDT showed nd, nd, nd, nd, nd, nd.
Variant GFDLNEYGIS | VIYADGMRTAYSDSVK | GEVAGTFDA showed -0.44, -0.79, -0.76, -0.93, -0.72, -0.28 (mean -0.65).
Variant GFTLNSYGIS | VIYSDGKRTFYGDNVK | GQAAGTFDT showed 1.58, 1.10, 1.06, 0.61, 1.31, 0.93 (mean 1.10).
Variant GFDLNEYGIS | VIYADGQRTAYSDSVK | GETAGTFDL showed -0.59, -0.09, -0.17, -0.78, -0.47, -0.13 (mean -0.37).
Variant MFDLNSYGIS | VIYSDGRRTFYADSVK | GKAAGTFDS showed 0.70, 0.85, 0.41, 0.59, 0.89, 1.05 (mean 0.75).
Variant GFTLNEYGIS | VIYSDGRRTFYQDSVK | GRAAVTFDM showed -0.21, -0.66, -0.75, 0.05, -0.34, -0.44 (mean -0.39).
Variant GFNLDEYGIS | VIYADGMRTAYADSVK | GNQAGTFDL showed -0.72, -0.55, -0.35, -0.08, -0.40, -0.50 (mean -0.43).
Variant GFTLNEYGIS | VIYSDGIRTFYGDSVK | GRAAGTFTS showed nd, nd, nd, nd, nd, nd.
Variant EFDLNEYGIS | VIYADGHRTFYAEHVK | GTNAGVFDT showed nd, nd, nd, nd, nd, nd.
Variant GDGLLEYGIS | VIYADGMREAYAENVK | GQTGGTFVL showed 2.22, nd, nd, nd, nd, nd.
Variant GFDLNEYGIS | VIYADGKRTFYSDSVK | GNAGGTFDL showed 0.82, 0.86, 1.01, 0.80, 0.71, 0.64 (mean 0.81).
Variant GFDLNEYGIS | VIYADGRRTFYADSVK | GENAGTFDQ showed -0.56, -0.71, -0.88, -0.82, -0.59, -0.71 (mean -0.71).
Variant GFTLNSYDIS | VIYADGRRTFYGDSVK | GRLAGTFDS showed 1.40, -0.37, 0.39, -0.01, 0.51, 0.07 (mean 0.33).
Variant GFTLESYGIS | VIYSDGRRTFYADSVK | GQTAGTFDS showed -0.15, 0.57, -0.03, 0.63, -0.54, -0.02 (mean 0.08).

The 4 strongest on average among those seen in every replicate, once more:

CDR-H1,CDR-H2,CDR-H3,log10 Kd (nM) by replicate,mean log10 Kd (nM)
GFDLNEYGIS,VIYADGRRTFYADSVK,GENAGTFDQ,"-0.56, -0.71, -0.88, -0.82, -0.59, -0.71",-0.71
GFDLNEYGIS,VIYADGMRTAYSDSVK,GEVAGTFDA,"-0.44, -0.79, -0.76, -0.93, -0.72, -0.28",-0.65
GFDLNEYGIS,VIYADGQRTAYSDSVK,GETAGTFDQ,"-0.56, -0.56, -0.92, -0.60, -0.55, -0.51",-0.62
GFDLNEYGIS,VIYADGMRTFYTDSVK,GEVAGTFDL,"-0.03, -0.45, -0.42, -0.95, -0.78, -0.60",-0.54

Data: MIT Lincoln Laboratory AlphaSeq set, Li et al. 2023, doi:10.1038/s41467-023-39022-2, as distributed in FLAb.